Assay: Inhibition of Influenza C virus C/JJ/50 9-SOAE expressed in Sf9 cells assessed as inhibition of hydrolysis of pNPA at 0.5 mM

## C=CCO[C@]1(C(=O)O)C[C@H](O)[C@@H](NC(C)=O)[C@H]([C@H](O)[C@H](O)COC)O1
  inhibition: 7.01%

Source: ChEMBL document CHEMBL1811860, “Synthesis and inhibitory activity of sialic acid derivatives targeted at viral sialate-O-acetylesterases” (Eur J Med Chem, 2011)
